Sampled rows, rich in hits. Any-hit rate of the full collection: about 3.7%.
ClpP mod = qHTS Assay for Activators of ClpP; purified B. subtilis ClpP, FRET peptide cleavage, 20 min; Potency, µM (top dose mostly 57.5 µM), for the others: at the top dose activity change, negative = active; 1.9% of 340,000 active; AID 651965, 2013; active = well fitted falling curve with a large enough effect; inconclusive = small, poorly fitted or top-dose-only effect; inactive = no such curve, though single readings can be large or run the other way; also: potency is read from the fitted curve at half-maximal effect; the source files actives as falling curves though it sought activators and does not explain the sign; nearly all actives have a fitted effect of over 65% in size
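Purified B. subtilis ClpP, 10 microg/mL final in Tris/HCl pH8 with KCl, BSA, glycerol and Tween-20, cleaved an Abz/nitrotyrosine-quenched decapeptide. Fluorescence (ex 320, em 430) was read at 0 and 20 min at room temperature. Delta was normalized to 5.8 microM ADEP and DMSO/no-enzyme controls.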
p53 reactivator = mutant p53 re-activation in reporter cells. Potency, µM (doses to about 92.2 µM), for the others: at the highest dose activity change, positive = activation, hits mostly activators. H1299 p53-A138V BP100-luciferase reporter, luminescence, 24 h. 0.063% of 320,000 active; also: potency is read from the fitted curve at half-maximal effect; % of control where 0% means no effect; nearly all actives have a fitted effect of over 45% in size
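p53-null H1299 cells stably carrying temperature-sensitive p53-A138V and a BP100-luciferase reporter were pinned with compounds (4-point, 1:5 series) and held 24 hrs at 37 deg C. Luminescence was read 10 min after detection reagent.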
miR-21 FLuc = raises the signal of a miR-21 reporter; HeLa miR-21 FLuc reporter, luciferase, 48 h; Potency, µM (top dose mostly 38.3 µM), for inactives: at the highest dose reporter change, positive = more light; AID 2288; 340,000 tested, under 10 active; active = well fitted rising curve with a large enough effect; inconclusive = small, poorly fitted or top-dose-only effect; inactive = no such curve, though single readings can be large or run the other way;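 note: % of control where 0% means no effect; miR-21 action dims this reporter so a rising signal means less miR-21 action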
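Using DMEM plus 10% FBS, HeLa miR-21-FLuc cells are incubated with test compounds (final up to about 40uM) for 48 hours; firefly luciferase signal is then imaged following reagent-mediated lysis.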
A549 tox = A549 cytotoxicity, counter-screen for Nrf2 inhibitors. A549 ARE-Fluc cells, CellTiter-Fluor viability, 18-24 h. 0.16% of 390,000 active. Potency, µM (top dose mostly 46 µM), for the others: at the highest dose activity change, negative = cytotoxicity, usual class: inhibitors. AID 504648; also: potency is read from the fitted curve at half-maximal effect; % is scaled to controls: 0 for no effect and ±100 for the full control effect
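Cytotoxicity counterscreen: CellTiter-Fluor fluorescence was measured in A549 ARE_Fluc cells after 18-24 h of compound exposure in a concentration series. The subsequent BugLite luminescent read reports ARE-luciferase activity.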
Nrf2 activator = Nrf2 pathway activation; 0.31% of 410,000 active; AREc32 ARE-luciferase reporter (MCF7-derived line), luminescence, 24 h; AID 624171; Potency, µM (titrated, usually from 46.1 µM), without a hit: at the highest dose activation, usual class: activators; also: potency is read from the fitted curve at half-maximal effect; % of control where 0% means no effect; nearly all actives have a fitted effect of over 65% in size
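Reporter line AREc32 (ARE-Fluc), seeded overnight in OPTI-MEM with 5% FBS; compound pin-transferred, 24 hr at 37 deg C, 5% CO2; luminescent read-out.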
Nrf2 block = Nrf2 pathway inhibition; AID 504444; Potency, µM (series often up to 46 µM), for inactives: top-dose activity change, negative = inhibition, usual class: inhibitors; A549 ARE-Fluc reporter, luciferase luminescence, 18-24 h; 2.1% of 360,000 active; also: potency is read from the fitted curve at half-maximal effect; % is scaled to controls: 0 for no effect and ±100 for the full control effect; nearly all actives have a fitted effect of over 60% in size
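Reporter: ARE-Fluc in A549. Exposure: 18-24 h, 37 °C, 5% CO2, 5% FBS OPTI-MEM. Readouts: fluorescent cytotoxicity (CellTiter-Fluor), then luminescent Nrf2 signal after BugLite.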
Starred values were filed as active, the others as inactive; ? = inconclusive; . = no result. Unless noted, calls follow the shape of the dose curve; as a rule, active = well fitted curve in the direction sought with a large enough effect; inconclusive = small, poorly fitted or top-dose-only effect, or another doubt; inactive = no such curve, though single readings can be large; an effect the other way counts as inactive or inconclusive.

No.	molecule	ClpP mod	p53 reactivator	miR-21 FLuc	A549 tox	Nrf2 activator	Nrf2 block
1	O=C(NC1CCCCC1)N(CCN1CCCC1)Cc1cc2cc3c(cc2[nH]c1=O)OCCO3	35µM*	-9%	-3%	-1%	0%	16%
2	Cc1cc2cc(CN(CCCN3CCOCC3)C(=O)NC3CCCCC3)c(=O)[nH]c2cc1C	?	-13%	-1%	17%	1%	20%
3	Cc1ccc2cc(CN(CCCN3CCOCC3)C(=O)NC3CCCCC3)c(=O)[nH]c2c1C	28µM*	3%	-14%	?	0%	17%
4	O=C(NC1CCCCC1)N(CCO)Cc1cc2cc3c(cc2[nH]c1=O)OCCO3	?	1%	-9%	14%	0%	0%
5	CC(C)c1ccc(N(C(=O)c2snc(C(N)=O)c2N)C(C(=O)NCC2CCCO2)c2ccc(N(C)C)cc2)cc1 (stereo not given)	0%	0%	?	?	0%	18µM*
6	CN(C)c1ccc(C(C(=O)NC2CCCCC2)N(Cc2ccco2)C(=O)c2snc(C(N)=O)c2N)cc1 (stereo not given)	-2%	1%	24%	?	3%	15µM*
7	CCOC(=O)c1c(-c2ccccc2Cl)cn2ccccc12	25µM*	-8%	-2%	.	2%	13%
8	N#C/C(=C\c1cn(-c2ccccc2)nc1-c1cccnc1)c1nnc2n1CCCCC2	-8%	-8%	-3%	?	0%	21µM*
9	O=C(/C=C/c1cn(-c2ccccc2)nc1-c1cccnc1)N1CCCC1	-3%	-4%	13%	?	4%	-18%
10	O=C(c1ccc2c(c1)CCN2S(=O)(=O)c1ccc(Cl)cc1)N1CCN(c2ccccc2)CC1	-3%	.	4%	-6%	4%	?

Overlap with the part before: 5 compounds, followed by the next part.
No.	molecule	ClpP mod	p53 reactivator	miR-21 FLuc	A549 tox	Nrf2 activator	Nrf2 block
6	CN(C)c1ccc(C(C(=O)NC2CCCCC2)N(Cc2ccco2)C(=O)c2snc(C(N)=O)c2N)cc1 (stereo not given)	-2%	1%	24%	?	3%	15µM*
7	CCOC(=O)c1c(-c2ccccc2Cl)cn2ccccc12	25µM*	-8%	-2%	.	2%	13%
8	N#C/C(=C\c1cn(-c2ccccc2)nc1-c1cccnc1)c1nnc2n1CCCCC2	-8%	-8%	-3%	?	0%	21µM*
9	O=C(/C=C/c1cn(-c2ccccc2)nc1-c1cccnc1)N1CCCC1	-3%	-4%	13%	?	4%	-18%
10	O=C(c1ccc2c(c1)CCN2S(=O)(=O)c1ccc(Cl)cc1)N1CCN(c2ccccc2)CC1	-3%	.	4%	-6%	4%	?
11	COc1cc(C(CC(=O)Nc2cccc(C(C)=O)c2)N2Cc3ccccc3C2=O)cc(OC)c1OC (stereo not given)	-3%	.	0%	9%	1%	0%
12	O=C(COC(=O)/C=C/c1ccccc1[N+](=O)[O-])Nc1ccc2[nH]c(=O)[nH]c2c1	.	1%	.	2%	11µM*	-1%
13	O=C(COC(=O)/C=C/c1ccccc1[N+](=O)[O-])Nc1ccc(OC(F)F)cc1	-1%	-4%	2%	-4%	1%	7%
14	O=C1c2cnc3ncnn3c2CC2c3ccccc3CCN12 (stereo not given)	.	0%	-4%	1%	0%	-2%
15	CSc1nc2ncc3c(n2n1)CC1c2ccccc2CCN1C3=O (stereo not given)	28µM*	3%	-8%	7%	0%	-13%
16	CC(CNC(=O)Cn1ncc2c3ccccc3n(Cc3cccc(Cl)c3)c2c1=O)c1ccccc1 (stereo not given)	5%	.	-2%	-6%	0%	?
17	Cc1cc(N2C3CCC2CC(O)(c2ccc(F)cc2)C3)nc(-c2ccccc2)n1 (stereo not given)	-10%	-7%	12%	?	4%	23µM*
18	Cc1ccnc(N2C3CCC2CC(O)(c2ccccc2)C3)n1 (stereo not given)	4%	-3%	-4%	-5%	0%	6%
19	COc1ccc(C2(N3CCN(c4cccc(C)c4C)CC3)C(=O)c3ccccc3C2=O)cc1	1%	.	0%	2%	0%	10%
20	Cc1c(Br)c([N+](=O)[O-])nn1CC(=O)NCc1ccco1	35µM*	-4%	-4%	1%	2%	-3%
21	Cc1c(Br)c(C(F)(F)F)nn1CC(=O)NCc1ccco1	.	-3%	1%	8%	0%	5%
22	CCn1cc(C(=O)NCc2ccccc2Cl)c(=O)c2cc(S(=O)(=O)N3CCCCCC3)ccc21	-1%	.	2%	1%	0%	-15%
23	COC(=O)c1sccc1NC(=O)c1ccco1	-11%	-5%	0%	1%	11µM*	-1%
24	COC(=O)c1sccc1NC(=O)c1ccccc1Br	-3%	.	.	-5%	?	-11%
25	COC(=O)c1sccc1NC(=O)c1c(F)c(F)c(F)c(F)c1F	.	.	.	1%	?	-11%
26	COC(=O)c1sccc1NC(=O)c1cccc(F)c1	.	.	.	-6%	10µM*	7%
27	COC(=O)c1sccc1NC(=O)c1ccccc1[N+](=O)[O-]	-1%	1%	-11%	-2%	11µM*	-1%
28	COC(=O)c1ccccc1NC(=O)c1ccco1	-2%	-20%	-4%	7%	24%	.
29	Cc1nn(-c2ccccc2)c2[nH]c(=O)cc(C(F)F)c12	-6%	-2%	.	-1%	-1%	13%
30	Cc1ccc(-n2nc(C)c3c(C)cc(=O)[nH]c32)cc1	28µM*	3%	-21%	-2%	1%	.
31	CS(=O)(=O)c1ncc(Cl)c(C(=O)N2CCN(c3cccc(Cl)c3)CC2)n1	2%	.	?	18µM*	-6%	7.3µM*
32	CCS(=O)(=O)c1ncc(Cl)c(C(=O)N2CCN(c3cccc(Cl)c3)CC2)n1	1%	.	?	?	-6%	23µM*
33	Cc1[nH]c2ccc(C(=O)N3CCN(c4cccc(Cl)c4)CC3)cc2c1C	-1%	0%	13%	?	-1%	?
34	CC(Oc1ccc(Cl)cc1Cl)C(=O)Nc1ccc(O)cc1 (stereo not given)	.	-2%	-23%	11%	1%	1%
35	CC(Oc1ccc(Br)cc1Cl)C(=O)Nc1ccncc1 (stereo not given)	0%	-4%	12%	0%	-1%	21µM*
36	CCOC(=O)N(C)c1ccc(C(O)(C(F)(F)F)C(F)(F)F)cc1	32µM*	6%	-7%	?	3%	.
37	O=C(Nc1ccccc1F)c1ccc(Cn2nc(N3CCN(c4ccccc4)CC3)ccc2=O)o1	0%	.	28%	-20%	-1%	21µM*
38	CCc1nn2c(=O)cc(COC(=O)c3cccc(NC(=O)CCc4ccccc4)c3)nc2s1	32µM*	.	1%	0%	0%	.
39	O=C(CC(=O)c1ccccc1)c1ccccc1	3%	.	.	-1%	14µM*	-10%
40	CN1/C(=C\C=C2/SC(=S)NC2=O)C(C)(C)c2ccccc21	-2%	-1%	20%	15µM*	5%	?
41	COc1cccc(CC(NC(C)=O)C(=O)NC2CCN(c3nc(C)cc(C)c3C#N)CC2)c1 (stereo not given)	?	1%	-5%	2%	0%	-13%
42	COc1ccc(CC(NC(C)=O)C(=O)NC2CCN(c3nc(C)cc(C)c3C#N)CC2)c(OC)c1 (stereo not given)	13µM*	0%	-12%	1%	-1%	-19%
